# Source: patent US7572799B2, “Pyrazolo[4,3-d]pyrimidines as Phosphodiesterase Inhibitors” (Pfizer Inc, priority 2003, dated 2009)
# Biological target: PDE-5 (UniProt O76074)
# Assay: In vitro PDE inhibitory activity against PDE5 (batch method or scintillation proximity assay)
# Assay type: biochemical, human
# Conditions: representative compounds
row,IC50,SMILES
1,0.776 nM,Cc1ccnc(Nc2nc(N(C)C(C)C)nc3c(C(=O)O)nn(CCOC4CCC4)c23)c1
2,4.68 nM,CCOCCn1nc(C(=O)NS(C)(=O)=O)c2nc(N(C)CCOC)nc(Nc3cc(C)ccn3)c21
3,0.591 nM,CCN(C)c1nc(Nc2cc(C)ccn2)c2c(n1)c(C(=O)NS(C)(=O)=O)nn2CCOC1CCC1
4,0.101 nM,CCN(C)c1nc(Nc2cccc(C)c2)c2c(n1)c(C(=O)NS(C)(=O)=O)nn2CCOCC(F)(F)F
5,0.056 nM,CCN(C)c1nc(Nc2ccc(F)c(C)c2)c2c(n1)c(C(=O)NS(C)(=O)=O)nn2CCOCC(F)(F)F
6,0.341 nM,CCOCCn1nc(C(=O)NS(=O)(=O)CC)c2nc(N(C)CC)nc(Nc3cc(C)ccn3)c21
7,2.54 nM,CCN(C)c1nc(Nc2cc(C)ccn2)c2c(n1)c(C(=O)O)nn2CCOC1CCC1
8,0.513 nM,CCOCCn1nc(C(=O)NS(C)(=O)=O)c2nc(N(CC)CC)nc(Nc3cc(C)ccn3)c21
9,0.324 nM,Cc1ccnc(Nc2nc(N(C)C(C)C)nc3c(C(=O)NS(C)(=O)=O)nn(CCOC4CCC4)c23)c1
10,1.16 nM,CCOCCn1nc(C(=O)NS(=O)(=O)CC)c2nc(N(C)C)nc(Nc3cc(C)ccn3)c21
11,1.55 nM,CCCN(C)c1nc(Nc2cc(C)ccn2)c2c(n1)c(C(=O)NS(C)(=O)=O)nn2CCOCC
12,2.88 nM,CCN(C)c1nc(Nc2cc(C)ccn2)c2c(n1)c(C(=O)NS(C)(=O)=O)nn2CCOCC(F)F
13,0.162 nM,CCOCCn1nc(C(=O)NS(=O)(=O)CC)c2nc(N(CC)CC)nc(Nc3cc(C)ccn3)c21

row,SMILES,IC50
1,CCOCCn1nc(C(=O)O)c2nc(N(CC)CC)nc(NC3CCCCC3)c21,8 nM
2,CCOCCn1nc(C(=O)O)c2nc(N(C)C)nc(NC3CCCCC3)c21,86.6 nM
3,CCOCCn1nc(C(=O)O)c2nc(N(C)CC)nc(NC3CCCCC3)c21,17.4 nM
4,CCNc1nc(NC2CCCCC2)c2c(n1)c(C(=O)O)nn2CCOCC,47.1 nM
5,CCOCCn1nc(C(=O)O)c2nc(N3CCCC3)nc(NC3CCCCC3)c21,94.7 nM
6,CCOCCn1nc(C(=O)O)c2nc(N(C)C(C)C)nc(NC3CCCCC3)c21,17.9 nM
7,CCOCCn1nc(C(=O)NS(C)(=O)=O)c2nc(N(C)CC)nc(Nc3cccc(C)c3)c21,0.198 nM
